Sequences of proteins named here, by UniProt entry; tags and fusion partners are left off. A change or cut given only in a name is not applied to a line headed by its entry. A line that says so, or that is headed by a name, gives the form on record, which may keep a tag or linker. Residues count along the entry.
UniProt P07686, 315-556 limits assumed: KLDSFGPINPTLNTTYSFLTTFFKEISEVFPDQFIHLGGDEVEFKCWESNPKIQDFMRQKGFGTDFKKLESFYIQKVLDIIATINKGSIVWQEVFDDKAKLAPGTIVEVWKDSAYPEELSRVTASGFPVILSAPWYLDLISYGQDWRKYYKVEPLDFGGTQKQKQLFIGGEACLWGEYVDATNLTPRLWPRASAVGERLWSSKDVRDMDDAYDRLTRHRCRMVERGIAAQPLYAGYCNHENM
UniProt P07686, 122-311 limits assumed: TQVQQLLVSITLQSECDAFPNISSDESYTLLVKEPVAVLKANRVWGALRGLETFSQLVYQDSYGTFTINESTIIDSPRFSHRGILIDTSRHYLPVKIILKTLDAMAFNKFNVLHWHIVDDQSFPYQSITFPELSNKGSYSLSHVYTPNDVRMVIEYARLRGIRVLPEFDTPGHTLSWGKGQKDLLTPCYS
UniProt P07686, other isoform, or with tags, fused parts or gaps: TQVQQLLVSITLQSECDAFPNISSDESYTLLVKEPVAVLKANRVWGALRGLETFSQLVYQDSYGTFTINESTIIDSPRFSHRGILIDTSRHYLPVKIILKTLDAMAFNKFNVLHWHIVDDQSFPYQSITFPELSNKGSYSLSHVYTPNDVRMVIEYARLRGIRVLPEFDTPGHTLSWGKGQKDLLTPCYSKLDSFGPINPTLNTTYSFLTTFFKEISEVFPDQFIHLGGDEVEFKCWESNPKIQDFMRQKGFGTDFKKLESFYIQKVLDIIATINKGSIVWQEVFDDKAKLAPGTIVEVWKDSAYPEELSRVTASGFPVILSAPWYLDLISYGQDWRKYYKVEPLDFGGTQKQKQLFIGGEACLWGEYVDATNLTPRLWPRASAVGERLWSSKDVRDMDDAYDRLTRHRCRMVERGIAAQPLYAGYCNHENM
UniProt P06865, 89-529: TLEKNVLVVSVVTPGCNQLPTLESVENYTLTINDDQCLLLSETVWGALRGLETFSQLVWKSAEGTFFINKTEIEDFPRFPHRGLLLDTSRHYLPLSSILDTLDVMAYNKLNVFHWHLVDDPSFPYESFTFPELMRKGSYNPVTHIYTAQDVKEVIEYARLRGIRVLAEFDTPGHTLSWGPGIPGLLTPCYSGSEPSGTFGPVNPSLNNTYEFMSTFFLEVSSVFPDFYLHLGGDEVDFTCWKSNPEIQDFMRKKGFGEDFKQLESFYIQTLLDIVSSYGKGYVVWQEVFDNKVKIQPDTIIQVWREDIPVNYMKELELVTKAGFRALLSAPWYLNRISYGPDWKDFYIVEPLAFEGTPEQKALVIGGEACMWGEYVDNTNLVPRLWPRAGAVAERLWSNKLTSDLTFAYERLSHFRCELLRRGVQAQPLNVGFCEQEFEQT
UniProt P06865, other isoform, or with tags, fused parts or gaps: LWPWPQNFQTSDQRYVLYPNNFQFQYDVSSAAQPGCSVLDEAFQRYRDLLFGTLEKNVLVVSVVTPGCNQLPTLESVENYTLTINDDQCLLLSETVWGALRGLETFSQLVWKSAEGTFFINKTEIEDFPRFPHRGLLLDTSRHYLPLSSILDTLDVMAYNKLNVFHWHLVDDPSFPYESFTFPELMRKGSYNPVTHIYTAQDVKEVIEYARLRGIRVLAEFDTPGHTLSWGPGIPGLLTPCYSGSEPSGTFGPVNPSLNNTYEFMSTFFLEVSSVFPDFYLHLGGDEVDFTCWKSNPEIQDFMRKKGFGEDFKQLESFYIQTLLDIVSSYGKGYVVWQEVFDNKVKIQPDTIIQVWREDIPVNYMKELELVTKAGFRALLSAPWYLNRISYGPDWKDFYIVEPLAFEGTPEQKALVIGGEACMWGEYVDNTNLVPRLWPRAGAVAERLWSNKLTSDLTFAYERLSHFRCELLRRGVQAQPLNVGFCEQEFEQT

According to patent US20150272951A1, “COMPOUNDS FOR THE TREATMENT OF LYSOSOMAL STORAGE DISEASES” (The Hospital for Sick Children, priority 2010, published 2015):

How the values were obtained:
HexB = HexB (Homo sapiens, UniProt P07686); test: HexB inhibition (purified isozyme); assay type: biochemical
Hex A = Hex A (Homo sapiens, UniProt P06865+P07686); test: Hex A inhibition (IC50 from dose response curves of Hex A residual activity);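 also: remaining Hex A enzyme activity recorded across rising inhibitor doses, with dose response curves run at pH 6.5 and again at pH 4.5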
mutant Hex A = mutant Hex A (Homo sapiens, UniProt P06865+P07686); assay type: cell-based; settings: Hex A rescue, determined from graphs of FIGS. 5-7
Protocol: Using the graphs of FIGS. 5-7, the EC50 values for Hex A rescue were determined as well as the maximum increase and range of increase in Hex A activity. These values are tabulated in Table 2, together with the IC50 values for Hex A inhibition that were determined in Example 3.

HexA wt = target: T1, HexA wt (Homo sapiens, UniProt P06865+P07686); test: Inhibition of HexA enriched from normal fibroblasts; assay type: biochemical; settings: pH 4.5
T1 construct: endogenous in cells; host or cells: normal fibroblasts (HexA isozyme enriched from them)

CCc1nc(N)nc(N)c1-c1ccc(Cl)cc1 [PYR, Pyrimethamine, reference compound]
IC50 (HexB; pH 4.5, 1.6 mM substrate, read-out: IC50 HexB pH 4.5): 9.1 µM | IC50 (HexB; pH 7, read-out: IC50 HexB pH 7): 4.5 µM | IC50 (Hex A; IC50 (μM ± Err), Hex A inhibition, values determined in Example 3, pH not given): 11 ± 1 µM | IC50 (Hex A; IC50 (μM), without error, pH not stated): 10.8 µM | IC50 (Hex A; IC50, pH 4.5, NINDS library screen): ~8 µM | IC50 (Hex A; read-out: IC50 HexA pH 7, purified HexA, pH 7): 3.1 µM | IC50 (Hex A; without error, pH not stated): 14 µM | EC50 (mutant Hex A): 8.11 µM | EC50 (mutant Hex A; listed as PYR (vsa7)): 3.62 µM | IC50 (HexA wt): 14 µM

Where two headings read alike, the source gives them in different places.
